According to PubChem BioAssay (Tox21):
“And” between values parts separate entries of the source, which are not always exact repeats. Equal values may be shown once. The list shows a part of the results, in another mix than the full data. Results filed as inconclusive are left out. The source made the active and inactive calls. Unless noted, calls come from the whole dose curve.

Protein sequences, listed by entry. Tags and fused reporters are not part of them.
UniProt P30968, whole entry: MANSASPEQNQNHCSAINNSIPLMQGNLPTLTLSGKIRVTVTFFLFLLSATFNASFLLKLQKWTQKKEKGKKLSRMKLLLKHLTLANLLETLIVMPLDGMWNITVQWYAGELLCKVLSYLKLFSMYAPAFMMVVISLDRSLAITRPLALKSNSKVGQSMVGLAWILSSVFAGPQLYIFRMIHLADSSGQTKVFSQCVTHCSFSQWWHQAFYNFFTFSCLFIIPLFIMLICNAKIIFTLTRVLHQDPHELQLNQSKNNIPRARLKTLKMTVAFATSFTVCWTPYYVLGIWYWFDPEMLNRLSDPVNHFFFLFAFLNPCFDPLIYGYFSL
UniProt Q969F8, whole entry: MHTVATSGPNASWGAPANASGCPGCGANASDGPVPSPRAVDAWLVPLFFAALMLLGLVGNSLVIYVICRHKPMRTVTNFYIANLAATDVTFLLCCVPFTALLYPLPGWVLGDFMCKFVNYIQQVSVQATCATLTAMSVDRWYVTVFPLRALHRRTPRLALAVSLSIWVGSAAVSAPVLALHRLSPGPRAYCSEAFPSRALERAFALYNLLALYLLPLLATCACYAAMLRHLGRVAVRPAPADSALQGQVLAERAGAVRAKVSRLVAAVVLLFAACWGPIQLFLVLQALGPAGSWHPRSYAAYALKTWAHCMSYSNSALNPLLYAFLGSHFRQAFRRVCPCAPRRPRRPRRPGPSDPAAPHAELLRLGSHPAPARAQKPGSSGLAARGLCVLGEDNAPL
UniProt P28223, whole entry: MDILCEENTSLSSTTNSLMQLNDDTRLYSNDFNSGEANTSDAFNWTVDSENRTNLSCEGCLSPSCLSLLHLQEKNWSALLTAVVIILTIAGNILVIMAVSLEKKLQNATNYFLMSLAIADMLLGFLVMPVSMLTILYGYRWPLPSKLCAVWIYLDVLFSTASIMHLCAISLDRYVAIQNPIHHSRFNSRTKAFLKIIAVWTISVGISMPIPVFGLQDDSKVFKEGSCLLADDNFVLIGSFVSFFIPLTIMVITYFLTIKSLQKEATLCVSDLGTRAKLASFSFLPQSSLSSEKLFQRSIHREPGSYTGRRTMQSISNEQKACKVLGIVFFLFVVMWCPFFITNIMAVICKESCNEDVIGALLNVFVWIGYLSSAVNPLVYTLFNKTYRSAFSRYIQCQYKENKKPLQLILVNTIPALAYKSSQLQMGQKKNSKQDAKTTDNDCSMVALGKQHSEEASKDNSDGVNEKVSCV
UniProt P07550, whole entry: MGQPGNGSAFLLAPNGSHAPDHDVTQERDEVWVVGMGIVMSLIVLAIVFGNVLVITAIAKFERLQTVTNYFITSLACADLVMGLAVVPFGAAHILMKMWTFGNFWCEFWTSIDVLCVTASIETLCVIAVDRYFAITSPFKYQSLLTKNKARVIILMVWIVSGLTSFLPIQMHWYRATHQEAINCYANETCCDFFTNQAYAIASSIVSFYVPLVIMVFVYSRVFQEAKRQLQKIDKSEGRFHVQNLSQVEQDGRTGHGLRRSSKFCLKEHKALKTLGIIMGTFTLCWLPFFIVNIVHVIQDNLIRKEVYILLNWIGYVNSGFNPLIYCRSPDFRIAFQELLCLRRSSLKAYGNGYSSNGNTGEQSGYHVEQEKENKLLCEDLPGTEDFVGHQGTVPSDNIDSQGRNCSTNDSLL
UniProt P14416, whole entry: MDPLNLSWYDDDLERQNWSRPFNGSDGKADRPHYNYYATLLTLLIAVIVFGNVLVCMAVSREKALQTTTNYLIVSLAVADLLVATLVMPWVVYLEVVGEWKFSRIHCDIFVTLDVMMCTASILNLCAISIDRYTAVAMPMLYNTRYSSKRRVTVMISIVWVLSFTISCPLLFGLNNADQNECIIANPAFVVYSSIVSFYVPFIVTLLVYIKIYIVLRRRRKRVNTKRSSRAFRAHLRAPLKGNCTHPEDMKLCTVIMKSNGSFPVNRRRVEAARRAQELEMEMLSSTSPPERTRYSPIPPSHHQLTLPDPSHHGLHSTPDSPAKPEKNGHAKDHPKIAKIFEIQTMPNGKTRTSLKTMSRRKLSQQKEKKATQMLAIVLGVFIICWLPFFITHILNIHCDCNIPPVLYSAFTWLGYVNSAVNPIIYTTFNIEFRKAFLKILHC

Columns and labels:
[1] = target: Gonadotropin-releasing hormone receptor (Homo sapiens) (UniProt P30968); test: Human gonadotropin-releasing hormone receptor (GnRHR) small molecule agonists, calcium flux assay in GnRHR-HEK293 cells (AID 1920063); conditions: calcium flux fluorescence, agonist mode, active compounds read high; at 57.6 µM (top of the series) unless noted; note: nearly all actives have a fitted effect of over 35% in size
Method in brief: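 GnRHR-HEK293, 1500 cells/well, 18 h 37 C/5% CO2; Ca dye 1 h 37 C; cpd pinned (DMSO), agonist mode; kinetic FL 480/540, 3 min, 1 s reads; 15 conc, n=3.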

[2] = target: KiSS-1 receptor (Homo sapiens) (UniProt Q969F8); test: Human kisspeptin (KISS1R) small molecule agonists, calcium flux assay in KISS1R-HEK293 cells (AID 1920064; active = well fitted activation curve with a large enough effect in the repeat runs)
Method in brief: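 Stable human KISS1R HEK293 line; 18 h plating, 37 C/5% CO2; calcium dye 1 h 37 C; compound pin transfer; kinetic fluorescence Ex/Em 480/540, 3 min.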

[3] = G protein-coupled receptor (GPCR) small molecule agonists, calcium flux assay: HEK293 wild type cell line counter screen (AID 1920065)
Method in brief: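 Kinetic fluorescence at Ex/Em 480/540, recorded every second over 3 min, served as the read-out after compound addition. Each compound was tested at 15 concentrations in triplicate on cells pre-loaded with calcium dye for 1 h.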

[4] = p53 small molecule agonists, cell-based qHTS assay with rat liver microsomes (AID 1963578); conditions: HCT-116 p53RE-bla, beta-lactamase ratio, 16 h
Method in brief: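 Metabolic activation is supplied by rat liver microsomes with NADPH (each 0.5 mg/mL final). p53RE-bla cells incubate with compound 16 h at 37 C; reporter activity is measured by LiveBLAzer fluorescence.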

[5] = p53 small molecule agonists, cell-based qHTS assay with human liver microsomes: qHTS cell viability counter screen (AID 1963579); conditions: p53RE-bla HCT-116 viability, ATP luminescence, 16 h, HLM; at 66 µM (top of the series) unless noted; note: nearly all actives have a fitted effect of over 45% in size
Method in brief: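 After the 460/530 nm beta-lactamase read, CellTiter-Glo was added to the same wells and luminescence measured after 30 min at room temperature, giving viability of p53RE-bla cells treated 16 h with compounds plus microsomes and NADPH.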

[6] = target: 5-hydroxytryptamine receptor 2A (Homo sapiens) (UniProt P28223); test: 5-hydroxytryptamine receptor 2A (HTR2A) small molecule agonists, cell-based qHTS assay (AID 1963587); conditions: HTR2A-CHO cells, calcium flux fluorescence, agonist mode; at 76.8 µM (top of the series) unless noted; note: nearly all actives have a fitted effect of over 30% in size
Method in brief: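 Kinetic calcium-flux fluorescence (2 min, 1 sec intervals) after compound addition in agonist mode. HTR2A-CHO cells were cultured 18 h, then dye-loaded 1 h at 37 C.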

[7] = target: Beta-2 adrenergic receptor (Homo sapiens) (UniProt P07550); test: Adrenergic beta2 receptor (ADRB2) small molecule antagonists, cell-based qHTS assay (AID 1963592); conditions: CHO-ADRB2 cells, isoproterenol-stimulated cAMP HTRF ratio, 0.5 h; note: nearly all actives have a fitted effect of over 50% in size
Method in brief: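 Cells (CHO, stable ADRB2 overexpression) incubated 18-20hr at 37C; compounds added from DMSO; agonist mix (1nM isoproterenol, 100uM IBMX, 25uM Ro-20-1724) added; 0.5hr RT; d2-cAMP and anti-cAMP-cryptate added; 1hr RT; 665/615 nm read.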

[8] = target: D(2) dopamine receptor (Homo sapiens) (UniProt P14416); test: Dopamine D2 receptor (DRD2) small molecule antagonists, cell-based qHTS assay (AID 1963595; active = well fitted inhibition curve with a large enough effect in the signal ratio in the repeat runs, with a control signal flat; the % refers to the signal ratio); conditions: HEK293-DRD2 cAMP HTRF antagonist mode; at 92.4 µM (top of the series) unless noted
Method in brief: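 Antagonist mode in DRD2-HEK293 cells: after compound addition with 0.1 mM Ro20-1724, cells received quinpirole (12 nM) and NKH477 (200 nM) for 30 min at room temperature; HTRF cAMP read after 1 h detection.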
% is set by controls: 0 for no effect and ±100 for the full control effect.

Cc1c([N+](=O)[O-])cccc1[N+](=O)[O-]
inactive: activity change [1] -0.901% and -0.819% | Potency [2] | Potency [3] | activation ([4]; at 66 µM (top of the series)) 0.244% and -3.92% | activity change, negative = cytotoxicity [5] 2.26% and 9.15% | activation [6] -2.02% and -0.488% | activity change, negative = inhibition ([7]; at 92.4 µM (top of the series)) 6.82% and 1.14% | activity change, negative = inhibition [8] 5.7% and 4.24%

O=[N+]([O-])OCC(CO[N+](=O)[O-])(CO[N+](=O)[O-])CO[N+](=O)[O-]
inactive: activity change [1] 2.25% | Potency [2] | Potency [3] | activation ([4]; at 66 µM (top of the series)) -1.84% | activity change, negative = cytotoxicity [5] -0.109% | activation [6] -0.0219% | activity change, negative = inhibition ([7]; at 92.4 µM (top of the series)) -1.48% | activity change, negative = inhibition [8] -2.6%

CCOP(=O)(CC)Oc1ccc([N+](=O)[O-])cc1 (stereo unspecified)
inactive: activity change [1] 0.568% [at 26.4 µM] | Potency [2] | Potency [3] | activity change, negative = cytotoxicity [5] 0.86% [at 30.3 µM] | activation [6] -0.408% [at 35.6 µM] | activity change, negative = inhibition ([7]; at 42.5 µM (top of the series)) 3.13% | activity change, negative = inhibition [8] 8.36% [at 42.5 µM]

O=[N+]([O-])[O-].[NH4+]
inactive: activity change [1] -0.269% and -0.212% | Potency [2] | Potency [3] | activity change, negative = cytotoxicity [5] 9.8% and -16.9% | activation [6] -1% and -4.87% | activity change, negative = inhibition ([7]; at 92.4 µM (top of the series)) -4.3% and -12% | activity change, negative = inhibition [8] 7.16% and -0.381%

CC(C)OP(C)(=O)OC(C)C
inactive: activity change [1] 0.771% and 0.691% | Potency [2] | Potency [3] | activation ([4]; at 66 µM (top of the series)) 0.375% and -0.0373% | activity change, negative = cytotoxicity [5] -0.249% and 3.35% | activation [6] 8.98% and 0.686% | activity change, negative = inhibition ([7]; at 92.4 µM (top of the series)) -4.77% and 0.556% | activity change, negative = inhibition [8] 7.23% and -15%

CC(C)N(CCO)C(C)C
inactive: activity change [1] -0.424% | Potency [2] | Potency [3] | activation ([4]; at 66 µM (top of the series)) -0.02% | activity change, negative = cytotoxicity [5] -1.18% | activation [6] 3.23% | activity change, negative = inhibition ([7]; at 92.4 µM (top of the series)) 0.207% | activity change, negative = inhibition [8] -2.26%

Cc1cccc([N+](=O)[O-])c1[N+](=O)[O-]
inactive: activity change [1] -0.969% [at 26.4 µM] | Potency [2] | Potency [3] | activation ([4]; at 30.3 µM (top of the series)) 3.77% | activation [6] 2.32% [at 35.6 µM] | activity change, negative = inhibition [8] 3.05% [at 42.5 µM]

N#CBr
inactive: activity change [1] 0.409% | Potency [2] | Potency [3] | activation ([4]; at 66 µM (top of the series)) -3.78% | activity change, negative = cytotoxicity [5] 0.497% | activation [6] 2.29% | activity change, negative = inhibition ([7]; at 92.4 µM (top of the series)) -2.25% | activity change, negative = inhibition [8] 0.733%

[NH4+].[O-][Cl+3]([O-])([O-])[O-]
inactive: activity change [1] -0.663% and 1.35% | Potency [2] | Potency [3] | activity change, negative = cytotoxicity [5] 0.843% and 17.9% | activation [6] -0.704% and -2.98% | activity change, negative = inhibition ([7]; at 92.4 µM (top of the series)) 7.22% and 0.242% | activity change, negative = inhibition [8] -0.24% and 2.91%

O=[N+]([O-])c1cccc([N+](=O)[O-])c1
inactive: activity change [1] -2.9% | Potency [2] | Potency [3] | activation ([4]; at 66 µM (top of the series)) 8.09% | activation [6] -1.97% | activity change, negative = inhibition [8] 0.0356%

CCOP(=O)(CC)OCC
inactive: activity change [1] 0.743% | Potency [2] | Potency [3] | activation ([4]; at 66 µM (top of the series)) -0.2% | activity change, negative = cytotoxicity [5] 4.19% | activation [6] 0.292% | activity change, negative = inhibition ([7]; at 92.4 µM (top of the series)) -0.121% | activity change, negative = inhibition [8] 4.54%
